From patent US6869783B1, “Method for producing chiral carboxylic acids from nitriles with the assistance of a nitrilase or microoganisms which contain a gene for the nitrilase” (BASF Aktiengesellschaft, priority 1998, dated 2005)

Test system: nitrilase from Alcaligenes faecalis 1650 (whole cells)
Assay: Determination of the enzymatic selectivity for mandelonitrile with Alcaligenes faecalis 1650 cells
Details: 8.3 mM mandelonitrile, pH 6.8, 30° C, at 50% conversion

## N#CC(O)c1ccccc1 (centres unmarked)
  optical purity of the R-(-)-mandelic acid formed (eeR-MA): 98%
  selectivity of the enzyme (=E): 499
